Experimental findings from patent US6545045B1, “Prostaglandin E agonists for treatment of glaucoma” (Alcon Manufacturing, Ltd., priority 1998, dated 2003) are described below.

Protein sequences, listed by entry. Tags and fused reporters are not part of them. Lines headed by an entry give the natural chain unless they say otherwise; changes in a name come on top.
UniProt P43116: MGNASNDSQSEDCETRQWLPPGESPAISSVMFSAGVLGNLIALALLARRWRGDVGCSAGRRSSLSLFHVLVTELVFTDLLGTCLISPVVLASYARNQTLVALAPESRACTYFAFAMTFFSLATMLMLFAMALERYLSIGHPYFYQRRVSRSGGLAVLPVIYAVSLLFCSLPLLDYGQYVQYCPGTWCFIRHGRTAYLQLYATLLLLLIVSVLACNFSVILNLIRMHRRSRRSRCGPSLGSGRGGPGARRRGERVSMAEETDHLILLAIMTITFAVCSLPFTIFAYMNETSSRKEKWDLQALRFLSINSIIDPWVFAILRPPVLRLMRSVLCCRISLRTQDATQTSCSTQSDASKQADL

The test deals with T1, EP2 receptors (Homo sapiens, UniProt P43116).
T1 construct: Immortalized human non-pigmented ciliary epithelial cells (containing EP2 receptors); endogenous in cells; host or cells: immortalized human non-pigmented ciliary epithelial cells
As to the kind of experiment: cAMP production (radioimmunoassay) via EP2 receptors in immortalized human non-pigmented ciliary epithelial cells. Type of test: cell-based. As to conditions: stimulated 15-60 min at 23° C, read-out: Potency (EC50, nM) at EP2 Receptors in Immortalized Human Non-pigmented Ciliary Epithelial Cells. As for the experimental part:
Immortalized human non-pigmented ciliary epithelial cells (containing EP2 receptors) and Chinese hamster ovary cells (containing EP4 receptors, Milne et al. Human moncytes and cultured Chinese hamster ovary cells express EP4 receptors positively coupled to adenylate cyclase, Br. J. Pharmacology, 113 (supplement):8 (1994)) were stimulated with various prostaglandins for 15-60 min at 23° C. […]
(In general: cAMP levels reflect the balance of adenylyl cyclase and phosphodiesterase activity.)

By EC50 is commonly meant the midpoint of the concentration-response curve. On to `CCCCC[C@H](O)/C=C/[C@H]1[C@H](O)CC(=O)[C@@H]1C/C=C\CCCC(=O)O` [PGE2], for which the EC50 worked out at 38 nM.
